## Binding of CDR-mutated scFvs to a peptide of the spike HR2 region

Binding partner: SARS-CoV-2 spike HR2 peptide, sequence PDVDLGDISGINAS.

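The parent was found by panning a naive human phage display library on the peptide. Library AAYL52 holds single substitutions and randomly drawn double and triple substitutions in the CDRs. Affinity was read by AlphaSeq, a pooled yeast mating assay with surface-displayed partners. Binding brings cells together so that they mate, and sequencing counts the barcode pairs among the diploids. Scores were corrected for input abundance and mapped to Kd with protein pairs of known affinity run in the same pool. There are three technical replicates.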

The variants keep the heavy chain, the linker and the frameworks of Ab-95 (scFv order VH, a (GGGGS)3 linker, VL).
VH: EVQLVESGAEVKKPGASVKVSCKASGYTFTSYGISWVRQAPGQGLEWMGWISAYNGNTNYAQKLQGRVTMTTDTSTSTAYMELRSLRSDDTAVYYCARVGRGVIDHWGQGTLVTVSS
VL: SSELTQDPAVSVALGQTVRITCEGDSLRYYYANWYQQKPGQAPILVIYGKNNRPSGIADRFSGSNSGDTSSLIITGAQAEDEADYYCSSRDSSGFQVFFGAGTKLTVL

Variants are written as CDR1, CDR2 and CDR3 of the light chain (limits as in the source). Parent: EGDSLRYYYAN, GKNNRPS, SSRDSSGFQVF.
Numbers give log10(Kd / nM), so 0 is 1 nM and 3 is 1 µM. Smaller is tighter.
Replicates are averaged; those with no signal do not enter the mean.
An entry "ND" has no value in the source: the pair was not observed among the diploids in that replicate. This suggests poor binding but is not conclusive.
Background: pairings of library AAYL52 with three empty control strains gave a value in 28% of cases (median 3.91, 5th percentile 2.90). Values in that range, when seen in few replicates, are hard to tell from nonspecific mating. Also given: how often the same scFv was detected with the empty control strains, with their mean in brackets.
In this assay the parent's reference entry averaged 2.31; its copy inside this library read 2.25.

| # | CDR-L1 | CDR-L2 | CDR-L3 | log10 Kd (nM) by replicate | mean, log10 nM | empty controls |
|---|---|---|---|---|---|---|
| 1 | EGDSLRYFYAN | GKNNRPS | SSTDSSVFQVF | 2.84 3.70 2.90 | 3.15 | 3 of 9 (4.27) |
| 2 | EGDHYRYYYAN | TKNNRPS | SSRDSSGFQVF | 4.69 ND ND | 4.69 | 1 of 9 (3.85) |
| 3 | EGDSKRYYYAN | GKNNRNS | SSIDSSGFQVF | 2.04 ND 3.48 | 2.76 | 1 of 9 (3.26) |
| 4 | EGDSLRYYYAN | GKNNRPS | SSRGGSGFQVF | 3.82 3.96 ND | 3.89 | 3 of 9 (4.82) |
| 5 | EGASLRYYYAN | MKNNRES | SSRDSSGFQVF | ND ND ND | ND | 0 of 9 |
| 6 | EGDSLRYYYQN | GKENCPS | SSRDSSGFQVF | 3.60 ND ND | 3.60 | 1 of 9 (3.25) |
| 7 | EGDSLRYYYAN | GKNNRPS | ASRWSSGFQVF | 3.46 2.62 3.13 | 3.07 | 3 of 9 (3.72) |
| 8 | EKDSLRYYHAN | GKNNRPS | SSADSSGFQVF | ND ND 3.93 | 3.93 | 2 of 9 (3.79) |
| 9 | EGRSLRYYYAN | GKNNRPS | SSRDSSGFQCW | 2.47 3.13 3.17 | 2.92 | 0 of 9 |
| 10 | EYDSLRYYYWN | GKNNRPS | SARDSSGFQVF | ND 5.13 ND | 5.13 | 5 of 9 (3.86) |
| 11 | EGDSLRYYYAN | GKNRRPS | SSRDSSGRQVT | 2.94 3.35 ND | 3.14 | 2 of 9 (3.41) |
| 12 | EGDSLEYYYAN | GLMNRPS | SSRDSSGFQVF | ND 3.78 3.30 | 3.54 | 1 of 9 (4.23) |
| 13 | EGDSLYYYYAN | GKNWRPS | SSRDTSGFQVF | ND 3.51 ND | 3.51 | 3 of 9 (4.42) |
| 14 | EGISLRYYYAN | RKVNRPS | SSRDSSGFQVF | 4.87 ND ND | 4.87 | 1 of 9 (4.11) |
| 15 | EGDQLRYYYAN | GKNNRVS | WSRDSSGFQVF | ND ND ND | ND | 1 of 9 (4.03) |
| 16 | YGDSLRYYYAN | GKDNRMS | SSRDSSGFQVF | 2.92 2.29 2.49 | 2.57 | 3 of 9 (4.67) |
| 17 | EGDSYRYYYAN | GKNNHPS | SSRDSSGFQVF | ND ND ND | ND | 0 of 9 |
| 18 | EGDSLTWYYAN | GKNNRPS | SSRDSAGFQVF | 4.03 ND 3.65 | 3.84 | 4 of 9 (3.73) |
| 19 | EGDSLKYYYAN | GKNNRRS | SSMDSSGFQVF | ND 3.18 3.68 | 3.43 | 0 of 9 |
| 20 | EGDDLRYYYAN | GKNNRPS | SSRDSDGFQWF | 4.12 ND ND | 4.12 | 2 of 9 (4.52) |
| 21 | EGDSLRYYYAN | GKNNTPR | SSRDSVGFQVF | 4.05 ND ND | 4.05 | 4 of 9 (4.27) |
| 22 | EGNSLVYYYIN | GKNNRPS | SSRDSSGFQVF | 5.59 3.06 ND | 4.33 | 6 of 9 (3.94) |
| 23 | EGDSLRYYYAN | YKNNRPS | SYRDSSGFQPF | ND ND ND | ND | 2 of 9 (4.66) |
| 24 | EGDSLRYEYAN | GKNNLPS | SSRDSSGFQVF | 1.75 1.78 1.23 | 1.59 | 4 of 9 (4.20) |
| 25 | EVDSLRYYYAW | GKNNRPS | SLRDSSGFQVF | 4.11 ND ND | 4.11 | 0 of 9 |
| 26 | RGDSLRYYYAN | GKNNRPS | SSKDSSQFQVF | 2.48 2.41 1.74 | 2.21 | 3 of 9 (3.95) |
| 27 | EGESLRYYYAN | GKNNRPS | SSRDSIGLQVF | 2.32 2.45 2.33 | 2.37 | 3 of 9 (3.55) |
| 28 | EGDSLRYYYAN | CKPNRPS | SSRDSYGFQVF | ND 4.93 3.74 | 4.34 | 1 of 9 (4.24) |
| 29 | EGDSLRYYYAN | GKNNRIH | SSRDSSGFDVF | ND 4.13 3.67 | 3.90 | 5 of 9 (4.18) |
| 30 | EGDSLRYYIYN | HKNNRPS | SSRDSSGFQVF | ND ND ND | ND | 2 of 9 (4.38) |
| 31 | EGDSLRYYYAN | WKNNRPS | SSRDSAGFQMF | 4.16 3.47 ND | 3.81 | 1 of 9 (4.14) |
| 32 | EGDSLRYYYAN | GPNNRPS | SSRDSSGFISF | 2.26 2.84 1.81 | 2.30 | 2 of 9 (4.07) |
| 33 | EGDSLRYYYRN | GYNVRPS | SSRDSSGFQVF | ND 3.64 2.83 | 3.24 | 1 of 9 (3.67) |
| 34 | EFDSLRRYYGN | GKNNRPS | SSRDSSGFQVF | 3.41 4.50 ND | 3.96 | 4 of 9 (4.18) |
| 35 | EGDSLRYDYAF | GKNNRPS | SSRDDSGFQVF | 4.31 ND ND | 4.31 | 3 of 9 (3.20) |

The opening 4 entries, copied out:

| CDR-L1 | CDR-L2 | CDR-L3 | log10 Kd (nM) by replicate | mean, log10 nM | empty controls |
|---|---|---|---|---|---|
| EGDSLRYFYAN | GKNNRPS | SSTDSSVFQVF | 2.84 3.70 2.90 | 3.15 | 3 of 9 (4.27) |
| EGDHYRYYYAN | TKNNRPS | SSRDSSGFQVF | 4.69 ND ND | 4.69 | 1 of 9 (3.85) |
| EGDSKRYYYAN | GKNNRNS | SSIDSSGFQVF | 2.04 ND 3.48 | 2.76 | 1 of 9 (3.26) |
| EGDSLRYYYAN | GKNNRPS | SSRGGSGFQVF | 3.82 3.96 ND | 3.89 | 3 of 9 (4.82) |

Reference: Engelhart et al. 2022, doi:10.1038/s41597-022-01779-4. File: FLAb, binding data.